Source: patent publication US6660870B1, “2-acylaminobenzimidazole derivatives for treating glaucoma” (Alcon, Inc., priority 2000, dated 2003)

Amino acid sequences for entries named in this document (tags omitted).
UniProt P14842, whole entry: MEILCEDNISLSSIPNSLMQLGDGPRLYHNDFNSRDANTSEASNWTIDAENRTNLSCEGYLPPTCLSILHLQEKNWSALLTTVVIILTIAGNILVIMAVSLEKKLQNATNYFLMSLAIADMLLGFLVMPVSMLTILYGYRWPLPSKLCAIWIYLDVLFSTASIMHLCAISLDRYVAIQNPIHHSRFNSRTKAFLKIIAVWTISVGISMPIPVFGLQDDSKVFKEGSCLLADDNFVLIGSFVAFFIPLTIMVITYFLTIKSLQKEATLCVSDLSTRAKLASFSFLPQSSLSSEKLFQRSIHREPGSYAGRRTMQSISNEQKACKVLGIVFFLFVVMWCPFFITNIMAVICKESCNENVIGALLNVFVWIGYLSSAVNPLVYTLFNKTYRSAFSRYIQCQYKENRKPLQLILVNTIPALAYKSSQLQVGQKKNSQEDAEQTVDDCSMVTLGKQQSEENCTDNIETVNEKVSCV

Target: T1, 5-HT2 receptor (Rattus norvegicus, UniProt P14842)
T1 construct: A7r5 rat vascular smooth muscle cells; endogenous in cells; host or cells: A7r5 rat vascular smooth muscle cells
Assay: 5-HT2 Functional Assay: Phosphoinositide (PI) Turnover Assay
Format: cell-based
Details: A7r5 cells, relative to 5-HT (set at 100%)
Method: 5-HT2 Functional Assay: Phosphoinositide (PI) Turnover Assay
The relative agonist activity of serotonergic compounds at the 5-HT2 receptor can be determined in vitro using the ability of the compounds to stimulate the production of [^3H]inositol phosphates in [^3H]myo-inositol-labeled A7r5 rat vascular smooth muscle cells by their ability to activate the enzyme phospholipase C. These cells are grown in culture plates, maintained in a humidified atmosphere of 5% CO2 and 95% air and fed semi-weekly with Dulbecco's modified Eagle medium (DMEM) containing 4.5 g/l glucose and supplemented with 2 mM glutamine, 10 μg/ml gentamicin, and 10% fetal bovine serum. For the purpose of conducting the phosphoinositide (PI) turnover experiments, the A7r5 cells are cultured in 24-well plates as previously [J. Pharmacol. Expt. Ther., 286, 411 (1998)]. Confluent cells are exposed for 24-30 hrs to 1.5 μCi [^3H]-myo-inositol (18.3 Ci/mmol) in 0.5 ml of serum-free medium. […] The eluate (4 ml) is collected, mixed with 15 ml scintillation fluid, and the total [^3H]-IPs determined by scintillation counting on a beta-counter. Concentration-response data are analyzed by the sigmoidal fit function of the Origin Scientific Graphics software (Microcal Software, Northampton, Mass.) to determine agonist potency (EC50 value) and efficacy (Emax). […]

COc1cc(C[C@@H](C)N)c(OC)cc1I [(R)-DOI]
Efficacy (Emax, %): 82%
